Tests used:
[1] = system: DUBs; assay: Activity-based DUB profiling with Rho-Ub-PA probe in HEK293T cells; assay type: cell-based, human; settings: 5 µM, 24 h
Protocol: Figure S3. Activity evaluation of inhibitors against DUBs in HEK293T cells. (A ) Inhibitors from structure modification. (B) Inhibitors from HTS. HEK293T cells were […]
incubation with Rho- Ub-PA probe for 30 min at 37 °C. Samples were resolved by SDS - […]
and visualized by fluorescence scanning on a Typhoon FLA 9500 (GE Healthcare Life […]
Nitrocellulose membranes and Western blot analysis.
(1 picture or pasted object on this page, not shown here)

[2] = system: other proteins of A549 cells; assay: TMT-based global proteomic profiling in A549 cells, other proteins; assay type: cell-based, Homo sapiens; settings: 5 μM, 8 h
Protocol: A549 cells were seeded into 10 cm plates in 10 mL of media. […] Cells were lysed using a 5% SDS lysis buffer (100 mM Tris-HCl, pH 7.6) and were incubated at 95 °C for 4 min. Protein determination was performed using the Pierce BCA Gold protein assay. 100 μg of protein of each sample was reduced and alkylated, and excess iodoacetamide was quenched using 5 mM TCEP, 15 mM iodoacetamide, and 10 mM DTT, respectively. The protein was pelleted down using chloroform/methanol precipitation, and the resulting pellets were resolubilized in 40 mM HEPES pH 8.4. […] The Pierce BCA Gold protein assay was used to determine the peptide concentration. The peptides were labeled with TMTpro Label Reagents in a 1:4 ratio by mass (peptides/TMT reagents) for 1 h at RT. Five μL of 6% hydroxylamine was added to quench excess TMT reagent and incubated for 15 min at RT. Samples were pooled and lyophilized. The sample was subsequently fractionated on an Agilent 1200 series HPLC system (Agilent Technologies). 75 μg of the pooled sample was dissolved in solvent A (10 mM NH4HCO3, pH 8.4), injected onto, and eluted from an Agilent Eclipse Plus C18 2.1 × 150 mm 3.5 μm column (Agilent Technologies). The gradient was run from 2 to 90% solvent B (10 mM NH4HCO3, pH 8.4 final concentration, 20/80 water/acetonitrile v/v) in 30 min at a flow rate of 200 μL/min. […]

SMILES | inhibition of DUBs in cells [1] | TM7SF3 protein level (total proteome profiling) [2]
N#CN1CC[C@@H](C(=O)Nc2nc3c(s2)CN(C(=O)c2cc(-n4ccnn4)ccc2F)CC3)C1 [Compound 84, (R)-1-Cyano-N-(5-(2-fluoro-5-(1H-1,2,3-triazol-1-yl)benzoyl)-4,5,6,7-tetrahydrothiazolo[5,4-c]pyridin-2-yl)pyrrolidine-3-carboxamide] | did not show interference with the activity of any DUB | downregulated
N#CN1CC[C@@H](C(=O)Nc2nc3c(s2)CN(C(=O)c2cccc(S(=O)(=O)N4CCOCC4)c2)CC3)C1 [Compound 340, (R)-1-Cyano-N-(5-(3-(morpholinosulfonyl)benzoyl)-4,5,6,7-tetrahydrothiazolo[5,4-c]pyridin-2-yl)pyrrolidine-3-carboxamide] | did not show interference with the activity of any DUB | 

— publication PMC11129182, “Development of Inhibitors, Probes, and PROTAC Provides a Complete Toolbox to Study PARK7 in the Living Cell” (Journal of Medicinal Chemistry, 2024)
